Measured values taken from patent US11078214B2, “Monocyclic thieno, pyrido, and pyrrolo pyrimidine compounds and methods of use and manufacture of same” (Duquesne University of the Holy Spirit, priority 2015, dated 2021).
pIC50: −log10 of the molar value.

Assays:
cellular microtubules = assay: Cellular microtubule depolymerization (Section V); type: cell-based; conditions: read-out: EC50 Microtubule depolymerization; Section V Table 2; μM
MDA-MB-435 cancer cells = assay: Antiproliferative sulforhodamine B (SRB) assay in MDA-MB-435 cells; type: cell-based, human; conditions: read-out: IC50 MDA-MB-435; Section V Table 2
purified tubulin = assay: Inhibition of the assembly of purified tubulin; type: biochemical; conditions: read-out: Inhibition of tubulin assembly IC50 (μM) ± SD; Section V Table 3
[1] = tested on: tubulin (colchicine site); assay: Inhibition of [3H]colchicine binding to tubulin; conditions: 5 μM inhibitor

Row | SMILES | EC50 (cellular microtubules) [µM] | pIC50 (MDA-MB-435 cancer cells) | IC50 (purified tubulin) [µM] | Inhibition of colchicine binding % Inhibition ± SD [1] [%]
1 | CCCN(c1ccccc1)c1ccc2nc(N)nc(N)c2n1 | > 10 | – | – | –
2 | CCN(c1ccccc1)c1ccc2nc(N)nc(N)c2n1 | – | 7.11 | – | –
3 | Nc1nc(N)c2nc(Nc3ccc(OC(F)(F)F)cc3)ccc2n1 | – | 6.16 | 8.4 | –
4 | CN(c1ccccc1)c1ccc2nc(N)nc(N)c2n1 | – | 7.07 | 1.7 | 84 ± 2
